According to patent US11970583B2, “Therapeutic dendrimer” (Starpharma Pty Ltd., priority 2018, dated 2024):

Assay: Cabazitaxel release from dendrimers in PBS at 37° C. and pH 7.4
Type: physicochemical
Settings: for % of Cabazitaxel Released: Exp #2, PBS 37° C. pH 7.4
Source text: The compounds tested were:

## BHALys[Lys]32[α-DGA-Cabazitaxel]32†[ε-PEG˜1100]32‡ [SPL9049]
PBS, 37° C., pH 7.4
  % API released at 24 hours (Exp #1): 51.5%
  % API released at 24 hours (Exp #2): 32%
  Time to 50% release (mean) (Exp #2): 54 h
  release of Cabazitaxel over 24 hours: 30 to 50%
Time 0 h
  % of Cabazitaxel Released: 0.97%
Time 24 h
  % of Cabazitaxel Released: 32.06%
Time 48 h
  % of Cabazitaxel Released: 45.156%
Time 67 h
  % of Cabazitaxel Released: 59.676%
Time 87 h
  % of Cabazitaxel Released: 67.86%
